Values of other authors as cited in patent US20110268774A1, “PREPARATION OF STEM CELLS WITH REPROGRAMMED CELL SIGNALLING, A METHOD OF PRODUCING THE PREPARATION AND A METHOD OF USE THEREOF” (priority 2008, published 2011).

Test system: Wnt and Sonic hedgehog signaling pathways

With `CC1=C2C[C@H]3[C@@H](CC=C4C[C@@H](O)CC[C@@]43C)[C@@H]2CC[C@]12O[C@@H]1C[C@H](C)CN[C@H]1[C@H]2C` [Cyclopamine] as the molecule, how does the CSC proliferation read?
The CSC proliferation was “Suppresses CSC”.
